The subject of one assay is A431-B1 cells. As to the kind of experiment: PrestoBlue viability assay, A431-B1 (A431-ABCB1) cells. The settings on record: read-out: IC50 / µM A431-B1; 72 h incubation.
The next assay deals with MES-SA/Dx5 cells. As to the kind of experiment: PrestoBlue viability assay, MES-SA/Dx5 cells (MDR, P-gp positive).
For another assay, the system named is MES-SA cells. As to the kind of experiment: PrestoBlue viability assay, MES-SA cells.
In a further assay the test system is A431 cells. As to the kind of experiment: PrestoBlue viability assay, A431 cells. The settings on record: read-out: IC50 / µM A431; 72 h incubation.

Only a part of the results on these compounds is given; other tests are left out. Where only a bound is given, the exact number is not on record here.

On to `Oc1c(CN(CCCl)CCCl)ccc2cccnc12`, for which the IC50 was greater than 200 µM in the assay on A431-B1 cells; 22.7 µM in the assay on MES-SA/Dx5 cells (read-out: IC50 / μM MES-SA/Dx5, absence of TQ, 72 h incubation); 20.7 µM in the assay with MES-SA cells (read-out: IC50 / μM MES-SA, absence of TQ, 72 h incubation); 107 µM with A431 cells. In addition, in the assay with MES-SA/Dx5 cells (MES-SA/Dx5 cells, without TQ), the “pIC50 value MES-SA/Dx5” value is reported as 4.65. Besides, the SR in the assay with MES-SA/Dx5 cells (selectivity ratio MES-SA vs MES-SA/Dx5, without TQ) was 0.91. The “pIC50 value MES-SA” value in the assay with MES-SA cells (MES-SA cells, without TQ) is reported as 4.69.

The record behind these values is PMC9189845, “Structure–Activity Relationships of 8-Hydroxyquinoline-Derived Mannich Bases with Tertiary Amines Targeting Multidrug-Resistant Cancer” (Journal of Medicinal Chemistry, 2022).
